# Data published in PubChem BioAssay AID602182 (The Scripps Research Institute Molecular Screening Center, 2012).
# Only a part is listed here, and it is no random draw. The source made the active and inactive calls. No rule for the calls is given here.
# Assay: GFP fluorescence inhibitors and quenchers, dose response, artefact control for Rin1-Abl interaction inhibitor project, biochemical (AID 602182);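 also: ABL1-eGFP fusion protein alone without its RIN1 binding partner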
# Settings: GFP fluorescence interference/quenching counterscreen
compound,measurement,value
COc1cccc(C(c2nnnn2C2CCCCC2)N2CCC(n3c(=O)[nH]c4ccccc43)CC2)c1OC (stereo unspecified),IC50,inactive: > 67.5 µM
